Measured values from PMC5731819, “Single-molecule studies contrast ordered DNA replication with stochastic translesion synthesis” (eLife, 2017).

Biological target: T1, E. coli DNA sliding clamp β (E. coli, UniProt P0A988 1-366, maleimide-Atto647N on a single cysteine residue (position not given))
T1 construct: DNA polymerase III subunit beta (sliding clamp β), E. coli, gene dnaN; also called β-clamp; β2 clamp; not shown: His tag (from the vector pET28a)
T1 sequence (looked up): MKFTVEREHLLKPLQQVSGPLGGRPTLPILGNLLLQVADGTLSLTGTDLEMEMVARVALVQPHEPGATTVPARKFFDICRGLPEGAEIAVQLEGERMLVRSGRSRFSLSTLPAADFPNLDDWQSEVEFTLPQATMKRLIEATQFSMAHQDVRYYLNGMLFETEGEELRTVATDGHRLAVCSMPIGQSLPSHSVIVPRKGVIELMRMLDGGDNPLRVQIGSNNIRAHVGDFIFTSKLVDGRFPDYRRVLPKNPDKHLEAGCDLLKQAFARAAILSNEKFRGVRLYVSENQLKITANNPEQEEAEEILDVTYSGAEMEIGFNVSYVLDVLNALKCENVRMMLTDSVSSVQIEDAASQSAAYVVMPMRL
Experiment: co-localization single-molecule spectroscopy (CoSMoS, TIRF); labelled Pol IIIcore (30 nM) on β-clamp loaded on surface-held matched DNA, no dNTPs; 23 °C, 20 mM Tris-HCl pH 7.5, 50 mM potassium glutamate, 8 mM MgCl2
Conditions: both partners purified

B1: Pol IIIcore with a weakened β-binding motif in the ε subunit, ε (β-) (complex, E. coli)
chain 1: MSEPRFVHLRVHSDYSMIDGLAKTAPLVKKAAALGMPALAITDFTNLCGLVKFYGAGHGAGIKPIVGADFNVQCDLLGDELTHLTVLAANNTGYQNLTLLISKAYQRGYGAAGPIIDRDWLIELNEGLILLSGGRMGDVGRSLLRGNSALVDECVAFYEEHFPDRYFLELIRTGRPDEESYLHAAVELAEARGLPVVATNDVRFIDSSDFDAHEIRVAIHDGFTLDDPKRPRNYSPQQYMRSEEEMCELFADIPEALANTVEIAKRCNVTVRLGEYFLPQFPTGDMSTEDYLVKRAKEGLEERLAFLFPDEEERLKRRPEYDERLETELQVINQMGFPGYFLIVMEFIQWSKDNGVPVGPGRGSGAGSLVAYALKITDLDPLEFDLLFERFLNPERVSMPDFDVDFCMEKRDQVIEHVADMYGRDAVSQIITFGTMAAKAVIRDVGRVLGHPYGFVDRISKLIPPDPGMTLAKAFEAEPQLPEIYEADEEVKALIDMARKLEGVTRNAGKHAGGVVIAPTKITDFAPLYCDEEGKHPVTQFDKSDVEYAGLVKFDFLGLRTLTIINWALEMINKRRAKNGEPPLDIAAIPLDDKKSFDMLQRSETTAVFQLESRGMKDLIKRLQPDCFEDMIALVALFRPGPLQSGMVDNFIDRKHGREEISYPDVQWQHESLKPVLEPTYGIILYQEQVMQIAQVLSGYTLGGADMLRRAMGKKKPEEMAKQRSVFAEGAEKNGINAELAMKIFDLVEKFAGYGFNKSHSAAYALVSYQTLWLKAHYPAEFMAAVMTADMDNTEKVVGLVDECWRMGLKILPPDINSGLYHFHVNDDGEIVYGIGAIKGVGEGPIEAIIEARNKGGYFRELFDLCARTDTKKLNRRVLEKLIMSGAFDRLGPHRAALMNSLGDALKAADQHAKAEAIGQADMFGVLAEEPEQIEQSYASCQPWPEQVVLDGERETLGLYLTGHPINQYLKEIERYVGGVRLKDMHPTERGKVITAAGLVVAARVMVTKRGNRIGICTLDDRSGRLEVMLFTDALDKYQQLLEKDRILIVSGQVSFDDFSGGLKMTAREVMDIDEAREKYARGLAISLTDRQIDDQLLNRLRQSLEPHRSGTIPVHLYYQRADARARLRFGATWRVSPSDRLLNDLRGLIGSEQVELEFD
chain 2: MSTAITRQIVLDTETTGMNQIGAHYEGHKIIEIGAVEVVNRRLTGNNFHVYLKPDRLVDPEAFGVHGIADEFLLDKPTFAEVADEFMDYIRGAELVIHNAAFDIGFMDYEFSLLKRDIPKTNTFCKVTDSLAVARKMFPGKRNSLDALCARYEIDNSKRTLHGALLDAQILAEVYLAMTGGQTSAAAAMEGETQQQQGEATIQRIVRQASKLRVVFATDEEIAAHEARLDLVQKKGGSCLWRA
chain 3: MLKNLAKLDQTEMDKVNVDLAAAGVAFKERYNMPVIAEAVEREQPEHLRSWFRERLIAHRLASVNLSRLPYEPKLK
modifications: Atto 488 (CoA-linked) conjugated by Sfp to the N-terminal Ybbr tag
notes: DNA polymerase III subunit alpha (Pol IIIα), E. coli, gene dnaE; DNA polymerase III subunit theta (θ), E. coli, gene holE; source: recombinant subunits purified; ε mutant by site directed mutagenesis; copies: + +
  lifetime on clamp-DNA: 7.9 s

B2: Pol IIIcore with an enhanced β-binding motif in the ε subunit, ε (β+) (complex, E. coli)
chain 1: B1 chain 1
chain 2: B1 chain 2 with A185L, A186P, A187L
chain 3: B1 chain 3
modifications: Atto 488 (CoA-linked) conjugated by Sfp to the N-terminal Ybbr tag
notes: as for B1
  lifetime on clamp-DNA: 40.2 s

Changes are numbered by the printed parent chain.
